SMILES strings stand for the structures. This is a selection; strong and weak results do not stand in their true shares. Some tests of the compounds listed are not included; inactive here does not mean inactive elsewhere. Results filed as inconclusive are left out. Calls of active or inactive are those of the source. Calls follow the shape of the full dose curve; tested in HEK293 cells.

Data on two compounds can be found in PubChem BioAssay AID540276 (National Center for Advancing Translational Sciences (NCATS), 2011).
% is scaled to controls: 0 for no effect and ±100 for the full control effect; potency is read from the fitted curve at half-maximal effect.

The assay in a line: qHTS for inhibitors of binding or entry into cells for Marburg Virus. Conditions: Marburg virus pseudotyped entry inhibition, cell reporter; series mostly up to 37.8 µM; activity change, negative = inhibition: at the top concentration.
As to `O=C(NCC1(N2CCCCC2)CCCCC1)c1cccc(Cl)c1`, the Potency was active: 2 µM.

On to `CC(C)N1C(=O)CC2(CCN(CCOC(=O)C(O)(c3ccccc3)c3ccccc3)CC2)C1=O`, for which the “activity change, negative = inhibition” value is inactive: 0.302%.
